SMILES strings stand for the structures.

For this assay the following is noted: 14 rosiglitazone-treated subjects (6 healthy, 8 with diabetes), 4 mg bid for 6 weeks; OGTT, SIARaA; mean ±s.e.m.; 6.9±1.3 before treatment, p<0.05.

For the compound `CN(CCOc1ccc(CC2SC(=O)NC2=O)cc1)c1ccccn1` (stereo not shown) [rosiglitazone], the “SI (insulin sensitivity) after treatment” value was 14.2±2.4 10^−4/min/(μU/ml).
